Binding of CDR-mutated scFvs to a peptide of the spike HR2 region

All variants were tested on one target, the spike HR2 peptide PDVDLGDISGINAS (SARS-CoV-2).

Parent: Ab-14, a human scFv built as VH, a 15-residue (Gly4Ser)3 linker, VL. Only the CDRs of the light chain vary.
VH: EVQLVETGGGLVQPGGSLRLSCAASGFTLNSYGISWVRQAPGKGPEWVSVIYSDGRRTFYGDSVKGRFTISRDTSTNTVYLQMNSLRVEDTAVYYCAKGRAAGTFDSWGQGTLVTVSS
VL: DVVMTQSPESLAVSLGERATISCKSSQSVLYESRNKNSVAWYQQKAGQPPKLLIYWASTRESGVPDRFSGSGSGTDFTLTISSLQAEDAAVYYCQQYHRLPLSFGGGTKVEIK

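The starting antibody came from a phage panning campaign against this peptide. In library AAYL50, one, two or three CDR residues were substituted; doubles and triples were drawn at random. Affinity was read by AlphaSeq, a pooled yeast mating assay with surface-displayed partners. The frequency of each diploid, read from paired DNA barcodes, reflects how well the two displayed proteins bind. The ratio of observed to expected reads was calibrated, replicate by replicate, on BCL2-family standards whose Kd was known from biolayer interferometry. Each pool was mated in three replicate cultures.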

Variants are written as CDR1, CDR2 and CDR3 of the light chain (limits as in the source). Parent: KSSQSVLYESRNKNSVA, WASTRES, QQYHRLPLS. This list gathers variants with a substitution at N35 (VL, numbered from residue 1). Each Kd is an estimate from the mating assay, the geometric mean of the replicates in which the pair was seen; lower is stronger. An entry "nd" has no value in the source: the pair was not observed among the diploids in any replicate. This suggests poor binding but is not conclusive. Background: pairings of library AAYL50 with three empty control strains gave a value in 18% of cases (median 15 µM, 5th percentile 970 nM). Values in that range, when seen in few replicates, are hard to tell from nonspecific mating. Also given: how often the same scFv was detected with the empty control strains. In this assay the parent's reference entry averaged 4.4 nM; its copy inside this library read 48 nM.

Variant KSSQSVLYESRSKNSVA, FASTRES, QQYHRLLLS gave 13 nM (3 of 3 replicates; controls 3 of 9).
Variant KSSQSVLYESRIKNSVA, WASTRES, QQYCRLPLS gave 95 nM (3 of 3 replicates; controls 0 of 9).
Variant KSSQSWLYESTHKNSVA, WASTRES, QQYHRLPLS gave 17 µM (1 of 3 replicates; controls 2 of 9).
Variant KSSQSVLYESRSKNSVA, WASTRES, TQYHRLPSS gave 12 nM (3 of 3 replicates; controls 0 of 9).
Variant WSSQSVLYESREKNSVA, WASTREQ, QQYHRLPLS gave 52 nM (3 of 3 replicates; controls 1 of 9).
Variant KSSQSVLEESRPKNSVV, WASTRES, QQYHRLPLS gave 1.7 µM (3 of 3 replicates; controls 1 of 9).
Variant KSSQSVLYGSRYKNSVA, WASTRES, QQYHRLPLI gave 18 nM (3 of 3 replicates; controls 3 of 9).
Variant KSSQSVLYESRTKNRVA, WASTWES, QQYHRLPLS gave 32 µM (1 of 3 replicates; controls 2 of 9).
Variant KSSQSVLYESRRKNSVA, HASTRES, QQYHRLPLF gave 17 nM (3 of 3 replicates; controls 3 of 9).
Variant KSSQCVLYESRYKNSVA, WACTRES, QQYHRLPLS gave nd (0 of 3 replicates; controls 2 of 9).
Variant KSSQSVLYESRGKNSVA, WACTRYS, QQYHRLPLS gave 4.9 µM (3 of 3 replicates; controls 4 of 9).
Variant KSSQSVLYESRRKNSVA, WASTRES, QQYHRLPLC gave 24 µM (3 of 3 replicates; controls 3 of 9).
Variant KSSQSVLYESRSKNSVA, WASTREA, QQYIRLPLS gave 17 nM (3 of 3 replicates; controls 1 of 9).
Variant KSSQSVLYESRAKNSVA, WASTRES, HQIHRLPLS gave 4.4 µM (1 of 3 replicates; controls 4 of 9).
Variant KSSQSVLYESRSKNSVA, WASTREQ, QQYHRKPLS gave 16 µM (1 of 3 replicates; controls 2 of 9).
Variant KSSQSVLYESRFKNSVA, WASTRES, QQYHRLPAS gave nd (0 of 3 replicates; controls 0 of 9).
Variant KDSQSVLYESRHKNSVA, WASTRES, QQTHRLPLS gave nd (0 of 3 replicates; controls 0 of 9).
Variant KSSFSVLYESRWKNSVA, WASTRES, QQYHRLPLS gave 360 nM (3 of 3 replicates; controls 1 of 9).
Variant KSSQNVLYESRFKNSVA, WAETRES, QQYHRLPLS gave 99 nM (3 of 3 replicates; controls 3 of 9).
Variant KSSQSVLYESRIKNSVA, WASTVES, QQYHRLPLS gave 40 µM (2 of 3 replicates; controls 0 of 9).
Variant KSSQSVLYESRYINSVA, WASTRES, QQYHRLFLS gave 3.7 µM (2 of 3 replicates; controls 4 of 9).
Variant KSSQSVLYESRRKNSVA, WASTRES, QQYHRLPLM gave 33 nM (2 of 3 replicates; controls 0 of 9).
Variant KASQSVLYEQRHKNSVA, WASTRES, QQYHRLPLS gave 19 nM (3 of 3 replicates; controls 5 of 9).
Variant KSSGSVLYGSREKNSVA, WASTRES, QQYHRLPLS gave 54 nM (3 of 3 replicates; controls 1 of 9).
Variant KSSQSVLYASREKESVA, WASTRES, QQYHRLPLS gave 18 nM (3 of 3 replicates; controls 1 of 9).
Variant KSSQSVLYESRLKNSVA, WASTGES, QQYHRLMLS gave nd (0 of 3 replicates; controls 0 of 9).
Variant KSSQSVLGESRAKNSVA, WASTRES, QWYHRLPLS gave 1.2 µM (3 of 3 replicates; controls 0 of 9).
Variant KSSQSVLYESRCKNSVA, VASTREY, QQYHRLPLS gave nd (0 of 3 replicates; controls 0 of 9).
Variant KSSQNVLYESRMKNSVA, WASTRES, QQYHRLPLS gave 6.3 nM (3 of 3 replicates; controls 0 of 9).
Variant KSSQSVLYESREKESVA, WASTRES, FQYHRLPLS gave 49 nM (3 of 3 replicates; controls 4 of 9).
Variant KSSQKELYESRSKNSVA, WASTRES, QQYHRLPLS gave 16 nM (3 of 3 replicates; controls 1 of 9).
Variant KSSQSVLTEIRWKNSVA, WASTRES, QQYHRLPLS gave 61 nM (3 of 3 replicates; controls 4 of 9).
Variant KSSQSVLYESDPMNSVA, WASTRES, QQYHRLPLS gave 2.8 nM (3 of 3 replicates; controls 2 of 9).
Variant KSSGSVWYESRDKNSVA, WASTRES, QQYHRLPLS gave 4.4 nM (3 of 3 replicates; controls 1 of 9).
Variant KSSQSVLYEHRFKNSVA, WAETRES, QQYHRLPLS gave 6.4 µM (1 of 3 replicates; controls 1 of 9).
Variant KSSQSVLYESRPKNSVA, WASTRES, QQCHRLPWS gave nd (0 of 3 replicates; controls 1 of 9).
Variant KSSQSVLYESRAKNSVA, WASTRES, QNWHRLPLS gave 23 µM (1 of 3 replicates; controls 3 of 9).
Variant KSSQSVLYESREKNSVA, WASRRES, QQYHKLPLS gave 12 µM (3 of 3 replicates; controls 1 of 9).
Variant KSSQSVLYEWRSKNSVA, TASTRES, QQYHRLPLS gave 42 nM (3 of 3 replicates; controls 1 of 9).

Top 4 of the variants detected in all replicates, tightest first:

With KSSQSVLYESDPMNSVA, WASTRES, QQYHRLPLS the result was 2.8 nM (3 of 3 replicates; controls 2 of 9).
With KSSGSVWYESRDKNSVA, WASTRES, QQYHRLPLS the result was 4.4 nM (3 of 3 replicates; controls 1 of 9).
With KSSQNVLYESRMKNSVA, WASTRES, QQYHRLPLS the result was 6.3 nM (3 of 3 replicates; controls 0 of 9).
With KSSQSVLYESRSKNSVA, WASTRES, TQYHRLPSS the result was 12 nM (3 of 3 replicates; controls 0 of 9).

From the AlphaSeq antibody data of Engelhart et al. 2022 (doi:10.1038/s41597-022-01779-4), copy in the FLAb collection.